{"source": "patent US20100272750A1", "experiment_in_all_cases": "125I-probe competition, purified HLA", "key": {"[1]": {"molecular_target": "HLA A3101 (human)"}, "[2]": {"molecular_target": "HLA A6801 (human)"}, "[3]": {"molecular_target": "HLA A2402 (human)"}}}
{"binder": "MVMLMLVRFK (modifications not checked)", "note": "[HPV31.E1.253]", "values": [{"measurement": "IC50", "setting": "[1]", "result": 53, "unit": "nM"}]}
{"binder": "ISFAGIVTK (modifications not checked)", "note": "[HPV31.E2.205]", "values": [{"measurement": "IC50", "setting": "[2]", "result": 16, "unit": "nM"}]}
{"binder": "GYNTFYIEF (modifications not checked)", "note": "[HPV18.E2.168]", "values": [{"measurement": "IC50", "setting": "[3]", "result": 16, "unit": "nM"}]}
